The values that follow are results of earlier work, collected in article PMC10218007, “Potential Clinically Relevant Effects of Sialylation on Human Serum AAG-Drug Interactions Assessed by Isothermal Titration Calorimetry: Insight into Pharmacoglycomics?” (International Journal of Molecular Sciences, 2023).

One series concerns the target AAG+s. Conditions: log Ka = log (1/KD), KD in M; ref (2) lidocaine, (3) warfarin, (4) clindamycin; cited from earlier work.
For series [1] the following is noted: usual therapeutic trough plasma level; ref 46 lidocaine, 47 diltiazem, 48 clindamycin, 49 warfarin; cited from earlier work.

As to clindamycin phosphate, the “Reference AAG+s log KA” value on AAG+s is 6.03. In series [1], the Ctrough is 1390 nM.
